# Target: cAMP and cAMP-inhibited cGMP 3',5'-cyclic phosphodiesterase 10A (Homo sapiens, UniProt Q9Y233)
# Protein sequences, listed by entry. Tags and fused reporters are not part of them. Lines headed by an entry give the natural chain unless they say otherwise; changes in a name come on top.
# UniProt Q9Y233: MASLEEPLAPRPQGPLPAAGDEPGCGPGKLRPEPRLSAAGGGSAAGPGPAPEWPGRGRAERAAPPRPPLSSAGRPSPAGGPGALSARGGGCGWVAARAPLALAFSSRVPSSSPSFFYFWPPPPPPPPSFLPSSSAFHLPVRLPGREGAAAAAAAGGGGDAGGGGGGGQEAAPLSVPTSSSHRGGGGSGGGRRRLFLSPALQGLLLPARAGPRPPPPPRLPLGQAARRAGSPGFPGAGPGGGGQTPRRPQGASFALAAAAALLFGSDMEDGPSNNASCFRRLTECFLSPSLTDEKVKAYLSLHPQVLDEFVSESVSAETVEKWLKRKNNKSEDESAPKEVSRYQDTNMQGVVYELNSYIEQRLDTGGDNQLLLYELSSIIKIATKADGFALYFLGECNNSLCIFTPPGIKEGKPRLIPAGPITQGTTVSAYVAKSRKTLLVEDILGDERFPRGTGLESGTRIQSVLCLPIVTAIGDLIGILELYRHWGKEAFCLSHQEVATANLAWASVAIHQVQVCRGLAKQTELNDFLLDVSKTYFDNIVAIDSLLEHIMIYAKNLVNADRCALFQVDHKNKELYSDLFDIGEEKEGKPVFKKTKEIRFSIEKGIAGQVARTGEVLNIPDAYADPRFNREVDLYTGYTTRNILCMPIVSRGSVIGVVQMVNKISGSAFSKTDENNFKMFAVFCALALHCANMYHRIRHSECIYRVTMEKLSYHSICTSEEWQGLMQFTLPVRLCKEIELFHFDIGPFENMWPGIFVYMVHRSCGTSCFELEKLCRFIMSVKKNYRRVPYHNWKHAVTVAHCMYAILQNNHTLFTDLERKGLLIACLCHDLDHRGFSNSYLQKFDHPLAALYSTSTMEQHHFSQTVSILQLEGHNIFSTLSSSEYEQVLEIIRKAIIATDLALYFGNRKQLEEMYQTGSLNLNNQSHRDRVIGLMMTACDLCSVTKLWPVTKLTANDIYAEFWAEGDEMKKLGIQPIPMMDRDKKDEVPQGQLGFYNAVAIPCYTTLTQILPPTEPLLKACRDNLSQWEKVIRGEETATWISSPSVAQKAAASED
structure (smiles),measurement,value
COc1ccc(Cc2nccc3cc(OC)c(OC)cc23)cc1OC [PAPAVERINE],IC50,49 nM

# Source: ChEMBL document CHEMBL6182862, “Discovery of novel azetidine-based imidazopyridines as selective and orally bioavailable inhibitors of phosphodiesterase 10A for the treatment of pulmonary arterial hypertension” (Eur J Med Chem, 2025)
